Source: patent US20060148760A1, “Method for the sysnthesis of compounds of formula I and their uses thereof” (TransTech Pharma, priority 2000, published 2006)

Amino acid sequences for entries named in this document (tags omitted). Residues count along the entry.
UniProt Q15109, 23-342 limits assumed: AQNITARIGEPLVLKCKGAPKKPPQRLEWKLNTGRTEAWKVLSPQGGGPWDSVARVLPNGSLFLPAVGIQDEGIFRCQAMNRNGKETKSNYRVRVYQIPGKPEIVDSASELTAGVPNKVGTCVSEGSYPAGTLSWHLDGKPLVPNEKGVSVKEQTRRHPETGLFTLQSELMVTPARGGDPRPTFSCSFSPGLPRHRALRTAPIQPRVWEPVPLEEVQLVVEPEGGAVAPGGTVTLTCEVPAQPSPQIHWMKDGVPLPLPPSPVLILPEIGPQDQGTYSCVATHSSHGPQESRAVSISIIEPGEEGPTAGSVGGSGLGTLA

Assays:
S-100b/RAGE interaction = target: T1, S-100b/RAGE interaction (Homo sapiens, UniProt Q15109); assay: ELISA assay, S-100b binding to sRAGE; conditions: plate-bound S100b, concentration at which 50% signal is inhibited
T1 construct: generate soluble RAGE (sRAGE) comprised of the V and C domains
Procedure: (§1) S100b, β-amyloid and CML (500 ng/100 μL/well) in 100 mM sodium bicarbonate/sodium carbonate buffer (pH 9.8) is loaded onto the wells of a NUNC Maxisorp flat bottom 96—well microtitre plate. The plate is incubated at 4° C. overnight. The wells are aspirated and treated with 50 mM imidazole buffer saline (pH 7.2) (with 1 mM CaCl2/MgCl2) containing 1% bovine serum albumin (BSA) (300 μL/well) for two h at 37° C.
(§2) Test compounds are dissolved in nanopure water (concentration: 10-100 μM). DMSO may be used as co-solvent. 25 μL of test compound solution in 2% DMSO is added, along with 75 μL sRAGE (4.0×10^−4 mg/mL FAC) to each well and samples are incubated for 1 h at 37° C. The wells are washed 3 times with 155 mM NaCl pH 7.2 buffer saline and are soaked 10 seconds between each wash. Non-radioactive binding is performed by adding:
(§3) 10 μL Biotinylated goat F(ab′)2 Anti-mouse IgG. (8.0×10^−4 mg/mL, FAC)
(§4) 10 μL Alk-phos-Sterptavidin (3×10^−3 mg/mL FAC)
(§5) 10 μL Polyclonal antibody for sRAGE (FAC 6.0×10^−3 mg/mL) to 5 mL 50 mM imidazole buffer saline (pH 7.2) containing 0.2% bovine serum albumin and 1 mM CaCl2. The mixture is incubated for 30 minutes at 37° C. […] The reaction is quenched with 10 μL of stop solution (0.5 N NaOH in 50% ethanol) and the absorbance is measured spectrophotometrically with a microplate reader at 405 nm. […]

[1] = target: T2, β-amyloid—RAGE interaction (Homo sapiens, UniProt Q15109); assay: ELISA assay, β-amyloid binding to sRAGE; conditions: plate-bound β-amyloid
T2 construct: generate soluble RAGE (sRAGE) comprised of the V and C domains
Procedure: as §1, §2, §3, §4, §5

[2] = target: T3, Carboxymethyl Lysine (CML)/RAGE interaction (Homo sapiens, UniProt Q15109); assay: ELISA assay, CML binding to sRAGE; conditions: plate-bound CML
T3 construct: generate soluble RAGE (sRAGE) comprised of the V and C domains
Procedure: as §1, §2, §3, §4, §5

Compound `CCCCOc1cc(C(=O)OCCN(CC)CC)ccc1NC(=O)[C@H](N)Cc1ccc2ccccc2c1` [Example 1, (R)-3-(2-Naphthyl)-2-aminopropionic Acid 4-Diethylaminoethoxycarbonyl-2-butoxyaniline Amide Dihydrochloride] has a pIC50 (S-100b/RAGE interaction) of 5.76, a pIC50 [1] of 5.47 and a pIC50 [2] of 5.64.

pIC50: −log10 of the molar value. Structures can show the parent of a compound that is named as a salt.
